This is a selection; strong and weak results do not stand in their true shares. Some of these compounds have results that are not shown, active ones among them. The source made the active and inactive calls. No stated cut-off is given here; in the data, active means inhibition above about 25%; inactive means the rest.

Amino acid sequences for entries named in this document (tags omitted). Residues count along the entry.
UniProt Q9ULH1, 325-724 limits assumed: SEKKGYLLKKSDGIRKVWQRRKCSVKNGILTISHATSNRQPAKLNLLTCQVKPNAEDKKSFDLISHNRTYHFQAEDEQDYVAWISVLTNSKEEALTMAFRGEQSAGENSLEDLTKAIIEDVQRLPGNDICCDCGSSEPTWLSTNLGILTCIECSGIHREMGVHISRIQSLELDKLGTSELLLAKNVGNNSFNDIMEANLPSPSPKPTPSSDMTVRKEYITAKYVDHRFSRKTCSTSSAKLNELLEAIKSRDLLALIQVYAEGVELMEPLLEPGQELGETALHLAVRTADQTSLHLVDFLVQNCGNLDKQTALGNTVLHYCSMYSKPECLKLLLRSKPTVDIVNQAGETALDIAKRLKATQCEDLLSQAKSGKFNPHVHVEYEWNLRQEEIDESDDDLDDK

The target in the test is Arf-GAP with SH3 domain, ANK repeat and PH domain-containing protein 1 (Homo sapiens) (UniProt Q9ULH1). Description: blockers of ASAP1-stimulated ARF1 GTP hydrolysis – biochemical, fluorescence polarization, primary screen (AID 624377).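 Further: 0% = vehicle with enzyme and substrate and 100% = no enzyme.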 Conditions: GDP FP detection, at 16.5 µM, hits give high values.
In the case of `CN1[C@@H]2CC[C@H]1CC(OC(=O)C(O)(c1ccccc1)c1ccccc1)C2` (stereo partly specified), the inhibition – broadly, the relative decrease from the control value, in per cent – was inactive: -12.6%.
With `O=C(NCC1(N2CCCCC2)CCCCC1)c1cc([N+](=O)[O-])ccc1Cl`, the inhibition was inactive: -0.9%.
In the case of `Cc1ccc(C(=O)NCC2(N3CCCCC3)CCCCC2)cc1` it was inactive: -7.91%; in that of `CC(C)N1C(=O)CC2(CCN(CCOC(=O)C(O)(c3ccccc3)c3ccccc3)CC2)C1=O`, inactive: 15.1%.
Consider `COc1cc(SC)ccc1C(=O)NCC1(N(C)C)CCCCC1`, for which the inhibition was inactive: -11.4%.
On to `CCN(CC)CC(C)C(C)OC(=O)C(O)(c1ccccc1)c1ccccc1` (stereo unspecified), for which the inhibition was inactive: 4.92%.
In the case of `CN(C)C1CCCC1OC(=O)C(O)(c1ccccc1)c1ccccc1` (stereo unspecified) it was inactive: -6.23%; in that of `CN(C)c1ccc(C(=O)NCC2(N(C)C)CCCCC2)cc1`, inactive: 2.92%; in that of `Cc1ccccc1C(=O)NCC1(N2CCCCC2)CCCCC1`, inactive: -10.7%.
Turning to `O=C(NCC1(N2CCCCC2)CCCCC1)c1cccc(Br)c1`, the inhibition was inactive: 3.71%.
For `Cc1cc(C(=O)NCC2(N3CCCCC3)CCCCC2)ccc1[N+](=O)[O-]`, the inhibition is inactive: 8.34%.
With `CCN1CCCC(OC(=O)C2(O)c3ccccc3C=Cc3ccccc32)C1` (stereo unspecified), the inhibition is inactive: 5.66%.
For the compound `COc1ccc(C(=O)NCC2(N(C)C)CCCCC2)cc1`, the inhibition is inactive: 0.58%.
In the case of `O=C(NCC1(N2CCCCC2)CCCCC1)c1cc(F)c(F)cc1Cl`, the inhibition is inactive: -1.51%.
Consider `C=CCN1CCN(CCOC(=O)C(O)(c2ccccc2)c2ccccc2)CC1`, for which the inhibition is inactive: -9.22%.
In the case of `COc1cc(C(=O)NCC2(N(C)C)CCCCC2)c([N+](=O)[O-])cc1OC` it was inactive: -5.83%; in that of `CN(C)C1(CNC(=O)c2ccc(Br)cc2)CCCCC1`, inactive: -12.4%.
Turning to `O=C(NCC1(N2CCCCC2)CCCCC1)c1cccc(Cl)c1`, the inhibition is inactive: 9.58%.
For the compound `COc1ccc(Cl)cc1C(=O)NCC1(N(C)C)CCCCC1`, the inhibition was inactive: -1.35%.
For `COc1cccc(C(=O)NCC2(N3CCCCC3)CCCCC2)c1`, the inhibition is inactive: -20.2%.
Turning to `O=C(OC1CN2CCC1CC2)C(CO)(c1ccccc1)c1ccccc1` (stereo unspecified), the inhibition was inactive: -1.51%.
With `CN(C)c1cccc(C(=O)NCC2(N(C)C)CCCCC2)c1`, the inhibition was inactive: 2.65%.
In the case of `O=C(OCCN1CCCC1)C(O)(c1ccccc1)c1ccccc1` it was inactive: -1.07%; in that of `CC(C)Oc1ccc(C(=O)NCC2(N(C)C)CCCCC2)cc1`, inactive: 1.27%; in that of `COc1ccc(Br)c(C(=O)NCC2(N3CCCCC3)CCCCC2)c1`, inactive: -1.59%.
As to `C=C(C)C#CC(O)(C(=O)OC1CCN(C)CC1)c1ccccc1` (stereo unspecified), the inhibition was inactive: -5.34%.

Source of the values: PubChem BioAssay AID624377 (The Scripps Research Institute Molecular Screening Center, 2012).
